A short description of data set [1]: Tetrathionate stability in stored plasma. To be noted: plasma stored at 4° C. for 48 h; other conditions (4° C. 24 h, −80° C. 24 or 48 h) not significantly different.
A further data set deals with cyanide poisoning. The data set is described as follows: Pig model of cyanide poisoning, intramuscular antidote. To be noted: pigs, 18 mg/kg intramuscular; model 100% lethal.
Data set [2] relates to methylmercaptan (methanethiol) poisoning. The experiment in a line: Mouse methylmercaptan gas exposure model, intramuscular antidote. To be noted: mice, intramuscular injection after 15 min, methylmercaptan gas total 40 min; all six saline-injected died.

SMILES strings stand for the structures.

Regarding `O=S(=O)(O)SSS(=O)(=O)O`, the “tetrathionate in stored plasma versus zero time samples” value in data set [1] was “significantly different from the zero time samples”. In addition, the survival entry with cyanide poisoning is listed as “three of four”; in data set [2] it was “five of six”.

Values taken from US12161664B2, “Tetrathionate for cyanide and methylmercaptan poisoning” (dated 2024).
